ChEMBL document CHEMBL5360629, “AI-Powered Virtual Screening of Large Compound Libraries Leads to the Discovery of Novel Inhibitors of Sirtuin-1” (J Med Chem, 2023)

Amino acid sequences for entries named in this document (tags omitted). A change or cut given only in a name is not applied to a line headed by its entry.
UniProt P43166: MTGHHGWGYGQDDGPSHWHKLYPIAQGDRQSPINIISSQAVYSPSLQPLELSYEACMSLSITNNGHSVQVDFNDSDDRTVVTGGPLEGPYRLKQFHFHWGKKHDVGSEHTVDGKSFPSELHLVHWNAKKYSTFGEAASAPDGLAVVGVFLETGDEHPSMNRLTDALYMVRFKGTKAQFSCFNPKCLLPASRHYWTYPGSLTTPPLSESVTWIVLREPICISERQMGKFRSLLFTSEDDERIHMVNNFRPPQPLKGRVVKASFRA
UniProt P00915: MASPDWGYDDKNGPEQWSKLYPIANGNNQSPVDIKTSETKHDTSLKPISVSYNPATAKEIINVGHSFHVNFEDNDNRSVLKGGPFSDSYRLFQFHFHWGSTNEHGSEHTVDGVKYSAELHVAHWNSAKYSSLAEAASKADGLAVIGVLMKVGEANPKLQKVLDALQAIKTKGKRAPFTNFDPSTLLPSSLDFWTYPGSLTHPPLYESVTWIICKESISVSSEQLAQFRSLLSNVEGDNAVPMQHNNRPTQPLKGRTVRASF
UniProt P07451: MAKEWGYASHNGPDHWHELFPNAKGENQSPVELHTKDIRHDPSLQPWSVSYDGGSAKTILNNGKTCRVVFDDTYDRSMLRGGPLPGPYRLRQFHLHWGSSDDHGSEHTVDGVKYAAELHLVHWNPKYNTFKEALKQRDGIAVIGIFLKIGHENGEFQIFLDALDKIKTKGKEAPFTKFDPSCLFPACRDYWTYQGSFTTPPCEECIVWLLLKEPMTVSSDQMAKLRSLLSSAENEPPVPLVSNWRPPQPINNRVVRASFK
UniProt P23280: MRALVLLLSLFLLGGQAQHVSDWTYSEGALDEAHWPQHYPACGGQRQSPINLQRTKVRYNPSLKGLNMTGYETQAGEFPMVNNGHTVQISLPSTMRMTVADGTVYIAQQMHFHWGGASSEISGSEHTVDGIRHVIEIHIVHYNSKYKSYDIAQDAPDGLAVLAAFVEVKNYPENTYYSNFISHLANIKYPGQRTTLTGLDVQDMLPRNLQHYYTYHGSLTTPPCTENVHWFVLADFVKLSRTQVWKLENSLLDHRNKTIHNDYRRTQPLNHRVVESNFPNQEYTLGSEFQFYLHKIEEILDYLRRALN
UniProt O43570: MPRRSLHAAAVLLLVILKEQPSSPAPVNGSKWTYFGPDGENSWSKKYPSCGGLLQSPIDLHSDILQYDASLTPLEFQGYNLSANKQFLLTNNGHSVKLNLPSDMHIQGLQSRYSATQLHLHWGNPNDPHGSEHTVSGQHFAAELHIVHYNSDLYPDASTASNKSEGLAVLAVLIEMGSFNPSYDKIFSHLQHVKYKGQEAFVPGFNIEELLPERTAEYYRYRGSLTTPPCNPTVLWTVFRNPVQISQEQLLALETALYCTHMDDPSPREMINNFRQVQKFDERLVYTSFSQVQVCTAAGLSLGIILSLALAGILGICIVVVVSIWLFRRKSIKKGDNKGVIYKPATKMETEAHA
UniProt Q9ULX7: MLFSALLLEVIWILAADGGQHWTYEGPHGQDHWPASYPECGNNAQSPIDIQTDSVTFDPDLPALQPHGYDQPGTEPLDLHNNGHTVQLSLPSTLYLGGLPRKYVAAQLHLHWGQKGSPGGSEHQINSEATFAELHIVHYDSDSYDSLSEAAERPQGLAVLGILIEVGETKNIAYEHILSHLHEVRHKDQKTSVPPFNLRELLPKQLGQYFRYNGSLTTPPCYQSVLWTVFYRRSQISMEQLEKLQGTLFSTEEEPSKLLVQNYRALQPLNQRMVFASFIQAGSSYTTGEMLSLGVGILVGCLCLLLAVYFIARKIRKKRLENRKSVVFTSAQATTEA
UniProt P22748: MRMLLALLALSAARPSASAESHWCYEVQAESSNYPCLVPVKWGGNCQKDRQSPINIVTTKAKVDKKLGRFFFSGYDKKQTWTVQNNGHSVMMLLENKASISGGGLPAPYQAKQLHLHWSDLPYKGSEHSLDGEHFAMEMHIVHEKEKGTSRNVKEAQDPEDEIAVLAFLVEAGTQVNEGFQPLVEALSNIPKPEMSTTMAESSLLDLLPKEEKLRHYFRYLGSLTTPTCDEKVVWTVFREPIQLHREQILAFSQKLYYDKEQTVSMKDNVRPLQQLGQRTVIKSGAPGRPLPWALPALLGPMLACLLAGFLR
UniProt Q8N1Q1: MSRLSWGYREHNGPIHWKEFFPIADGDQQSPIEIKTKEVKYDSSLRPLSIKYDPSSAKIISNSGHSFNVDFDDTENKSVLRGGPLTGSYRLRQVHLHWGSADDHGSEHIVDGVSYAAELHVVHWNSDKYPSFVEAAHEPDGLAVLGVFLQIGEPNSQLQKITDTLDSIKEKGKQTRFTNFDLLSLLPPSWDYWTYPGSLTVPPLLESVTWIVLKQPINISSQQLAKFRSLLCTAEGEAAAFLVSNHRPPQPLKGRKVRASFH
UniProt Q9Y2D0: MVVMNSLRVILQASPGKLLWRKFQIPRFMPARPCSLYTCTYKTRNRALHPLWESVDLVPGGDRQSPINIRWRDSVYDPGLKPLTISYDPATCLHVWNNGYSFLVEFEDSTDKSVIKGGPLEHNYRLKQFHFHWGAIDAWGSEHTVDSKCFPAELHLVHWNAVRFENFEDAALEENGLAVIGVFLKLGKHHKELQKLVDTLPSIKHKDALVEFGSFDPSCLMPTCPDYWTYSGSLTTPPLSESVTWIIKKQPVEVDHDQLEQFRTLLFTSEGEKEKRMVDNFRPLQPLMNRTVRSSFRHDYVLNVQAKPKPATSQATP
UniProt P35218: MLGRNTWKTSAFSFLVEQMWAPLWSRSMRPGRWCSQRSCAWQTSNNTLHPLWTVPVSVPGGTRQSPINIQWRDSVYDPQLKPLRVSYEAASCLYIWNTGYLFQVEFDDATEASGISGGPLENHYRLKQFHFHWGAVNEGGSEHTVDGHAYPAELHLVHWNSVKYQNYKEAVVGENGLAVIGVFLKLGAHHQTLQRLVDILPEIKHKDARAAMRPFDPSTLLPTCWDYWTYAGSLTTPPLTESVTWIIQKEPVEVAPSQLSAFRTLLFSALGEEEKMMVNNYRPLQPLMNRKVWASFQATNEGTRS

Target: Carbonic anhydrase (Homo sapiens) (UniProt P00918+P43166+P00915+P07451+P23280+O43570+Q9ULX7+Q16790+P22748+Q8N1Q1+Q9Y2D0+P35218)
Experiment: Binding affinity to carbonic anhydrase (unknown origin) assessed as change in melting temperature incubated for 15 mins by Sypro orange staining based thermal scanning analysis
Type: protein assay
Conditions: dose 0.01-1000 µM

SMILES	Activity
O=C(Nc1ccccc1)Nc1cccc(NC(=O)c2ccccc2)c1	inactive
Cc1ccc(C(=O)NCCc2c[nH]c3ccccc23)cc1	Dose-Dependent Effect
O=C(NCCc1c[nH]c2ccccc12)c1ccc(F)cc1	Dose-Dependent Effect
O=C(Nc1ccccc1)Nc1ccc(NC(=O)c2ccccc2)cc1	Dose-Dependent Effect
O=C(NCCc1c[nH]c2ccccc12)c1n[nH]c2ccccc12	Dose-Dependent Effect
O=C(NCCc1c[nH]c2ccccc12)c1ccc(Cl)cc1	Dose-Dependent Effect
O=C(NCCc1c[nH]c2ccccc12)c1cc2ccccc2cc1O	Dose-Dependent Effect

Calls of active or inactive are those of the source. The calls are words filed in the database; no cut-off is given here.
